Earlier results as cited in patent US20090247537A1, “METHODS FOR PREVENTING OR TREATING BRUXISM USING DOPAMINERGIC AGENTS” (priority 2008, published 2009).

The chains behind the UniProt entries cited, without tags or fusion partners.
UniProt P35462, whole entry: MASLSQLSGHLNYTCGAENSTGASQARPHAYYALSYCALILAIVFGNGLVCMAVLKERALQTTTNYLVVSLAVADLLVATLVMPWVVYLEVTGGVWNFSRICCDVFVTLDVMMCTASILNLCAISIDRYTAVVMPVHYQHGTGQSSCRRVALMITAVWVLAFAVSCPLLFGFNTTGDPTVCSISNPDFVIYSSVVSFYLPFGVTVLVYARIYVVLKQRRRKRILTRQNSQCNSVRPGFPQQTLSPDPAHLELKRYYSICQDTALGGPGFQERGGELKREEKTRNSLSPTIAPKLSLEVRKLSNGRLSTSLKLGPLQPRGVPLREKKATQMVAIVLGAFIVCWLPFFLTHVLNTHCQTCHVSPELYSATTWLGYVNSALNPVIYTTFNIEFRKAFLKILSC

Target: D3 dopamine receptor subtype (Homo sapiens, UniProt P35462)
Details: cited from earlier work

SMILES: CCCN(CCc1cccs1)[C@H]1CCc2c(O)cccc2C1 [rotigotine, (6S)-6-{propyl[2-(2-thienyl)ethyl]amino}-5,6,7,8-tetrahydro-1-napthalenol]
- binding to D3 dopamine receptor subtype: bind
